{"source": "paper PMC2361661", "about": "“A phase I pharmacokinetic and pharmacodynamic study of BGC9331 and carboplatin in relapsed gynaecological malignancies” (British Journal of Cancer, 2005)", "origin": "cited, not measured here", "system": "human ovarian tumour cell lines", "details": "ref Jackman et al, 2002; cited from earlier work"}
{"smiles": "C#CCN(Cc1cc2c(=O)[nH]c(C)nc2cc1C)c1ccc(C(=O)N[C@@H](CCc2nnn[nH]2)C(=O)O)c(F)c1", "note": "[BGC9331]", "values": [{"measurement": "cross-resistance to platinum-based agents", "value": "non crossresistance"}]}
